ChEMBL document CHEMBL6153133, “Discovery of Diphenyl Ether Derivatives as Novel BKCa Channel Activators: Structure-Activity Relationship, Cryo-EM Complex Structures, and In Vivo Animal Studies” (J Med Chem, 2025)

By UniProt entry, the sequences of proteins in these tests, tags left out.
Calcium-activated potassium channel subunit alpha-1 (Homo sapiens), Q12791, UniProt Q12791, whole entry, looked up, stated change not applied: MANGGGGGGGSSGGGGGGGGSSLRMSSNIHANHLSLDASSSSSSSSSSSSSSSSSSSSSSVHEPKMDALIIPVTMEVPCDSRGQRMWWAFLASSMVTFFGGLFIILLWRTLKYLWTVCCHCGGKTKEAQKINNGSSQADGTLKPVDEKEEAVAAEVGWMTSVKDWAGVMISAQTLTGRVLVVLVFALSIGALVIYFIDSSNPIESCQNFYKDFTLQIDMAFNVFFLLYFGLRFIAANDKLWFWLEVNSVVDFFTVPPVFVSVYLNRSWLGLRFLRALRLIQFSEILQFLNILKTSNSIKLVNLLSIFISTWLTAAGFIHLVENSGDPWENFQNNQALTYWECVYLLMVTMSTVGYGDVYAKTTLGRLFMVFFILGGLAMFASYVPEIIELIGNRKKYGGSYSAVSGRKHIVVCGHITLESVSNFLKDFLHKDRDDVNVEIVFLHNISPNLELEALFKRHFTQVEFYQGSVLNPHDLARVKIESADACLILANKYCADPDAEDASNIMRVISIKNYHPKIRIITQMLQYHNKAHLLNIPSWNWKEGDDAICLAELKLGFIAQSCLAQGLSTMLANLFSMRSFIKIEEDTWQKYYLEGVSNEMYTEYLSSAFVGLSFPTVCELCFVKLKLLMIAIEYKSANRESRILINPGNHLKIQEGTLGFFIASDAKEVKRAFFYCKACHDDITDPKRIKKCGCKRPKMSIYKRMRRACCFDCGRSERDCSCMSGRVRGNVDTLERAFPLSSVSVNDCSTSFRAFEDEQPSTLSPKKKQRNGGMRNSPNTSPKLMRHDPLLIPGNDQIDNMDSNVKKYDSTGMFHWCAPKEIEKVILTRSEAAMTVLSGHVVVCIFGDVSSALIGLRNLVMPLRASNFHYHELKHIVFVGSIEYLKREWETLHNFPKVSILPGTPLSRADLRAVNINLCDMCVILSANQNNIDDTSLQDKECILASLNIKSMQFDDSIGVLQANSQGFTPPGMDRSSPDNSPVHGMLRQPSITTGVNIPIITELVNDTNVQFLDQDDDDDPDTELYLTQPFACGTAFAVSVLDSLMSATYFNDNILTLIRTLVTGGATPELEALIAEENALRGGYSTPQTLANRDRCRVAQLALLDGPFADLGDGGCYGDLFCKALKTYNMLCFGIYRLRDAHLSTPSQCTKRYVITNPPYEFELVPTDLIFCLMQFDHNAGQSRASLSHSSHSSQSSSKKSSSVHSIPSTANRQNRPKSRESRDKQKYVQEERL

Test system: Calcium-activated potassium channel subunit alpha-1 (Homo sapiens), Q12791 [UNDEFINED MUTATION]
Assay: Activation of hyperactive human BKca channel G803D/N806K mutant transfected in human AD-293 cells assessed as fold change in maximum relative fluorescence value at 5 uM preincubated for 15 mins followed by Tl+ stimulus buffer addition and measured after 80 sec by Flexstation3 multimode microplate reader analysis
Format: cell-based
Details: filed as opener, time 980.0 sec

SMILES	fold change (FC)
O=C(O)c1ccc(Cl)c2c1[nH]c1c3ccc(C(F)(F)F)cc3oc12	3.8
Nc1ccc(Oc2c(F)c(F)c(C(F)(F)F)c(F)c2F)c(O)c1	9.3
